The values below come from US12516056B2, “Compounds for inhibition of janus kinase 1” (MANKIND PHARMA LTD., priority 2019, dated 2026).

By UniProt entry, the sequences of proteins in these tests, tags left out. Where a name states a change or a piece, a line headed by the entry shows the natural chain unless it says otherwise.
UniProt P29597: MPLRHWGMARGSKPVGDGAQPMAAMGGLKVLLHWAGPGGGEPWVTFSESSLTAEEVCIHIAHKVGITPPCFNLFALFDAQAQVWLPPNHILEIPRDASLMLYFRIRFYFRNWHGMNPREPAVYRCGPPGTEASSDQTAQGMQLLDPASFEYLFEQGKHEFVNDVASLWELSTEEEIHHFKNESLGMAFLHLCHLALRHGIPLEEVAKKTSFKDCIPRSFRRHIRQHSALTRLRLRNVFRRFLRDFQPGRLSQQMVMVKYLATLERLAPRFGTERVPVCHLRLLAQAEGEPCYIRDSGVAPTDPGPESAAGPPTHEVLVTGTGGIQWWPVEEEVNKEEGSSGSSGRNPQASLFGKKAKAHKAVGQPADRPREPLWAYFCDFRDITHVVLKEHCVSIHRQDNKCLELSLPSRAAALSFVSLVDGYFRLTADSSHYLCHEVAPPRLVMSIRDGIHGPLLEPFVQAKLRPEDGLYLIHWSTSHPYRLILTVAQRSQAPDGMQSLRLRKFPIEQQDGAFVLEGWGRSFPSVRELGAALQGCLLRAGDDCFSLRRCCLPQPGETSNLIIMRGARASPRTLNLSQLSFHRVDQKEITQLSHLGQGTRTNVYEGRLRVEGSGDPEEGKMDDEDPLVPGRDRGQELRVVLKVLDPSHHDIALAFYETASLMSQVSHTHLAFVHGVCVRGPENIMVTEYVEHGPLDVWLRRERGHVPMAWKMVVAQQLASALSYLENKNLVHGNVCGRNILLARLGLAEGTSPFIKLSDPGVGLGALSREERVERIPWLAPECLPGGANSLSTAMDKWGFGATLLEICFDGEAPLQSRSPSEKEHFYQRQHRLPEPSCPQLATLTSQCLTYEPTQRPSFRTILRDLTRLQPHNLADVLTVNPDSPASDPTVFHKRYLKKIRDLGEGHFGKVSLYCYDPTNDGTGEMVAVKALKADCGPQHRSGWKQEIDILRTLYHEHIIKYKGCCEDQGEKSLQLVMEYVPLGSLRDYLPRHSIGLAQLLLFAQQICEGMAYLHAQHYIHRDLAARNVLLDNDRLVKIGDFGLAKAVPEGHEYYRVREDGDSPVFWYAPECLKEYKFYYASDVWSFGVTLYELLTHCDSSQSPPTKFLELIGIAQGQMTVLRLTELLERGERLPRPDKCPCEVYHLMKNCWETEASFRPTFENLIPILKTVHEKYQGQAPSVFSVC

This test concerns the target T1, Recombinant TYK2 (Homo sapiens, UniProt P29597).
T1 construct: purchased Carna Biosciences
Kind of test: JAK biochemical assay (LANCE Ultra TR-FRET), TYK2. As to the method: Recombinant JAK1, JAK2, JAK3 and TYK2 (Carna Biosciences) were used to develop biochemical assays in 50 mM HEPES pH 7.5, 1 mM EGTA, 10 mM MgCl2, 2 mM DTT and 0.01% Tween-20. […] The intensity of the light emission is proportional to the level of ULight substrate phosphorylation. Compounds which interfere with JAK enzyme activity show a lesser substrate phosphorylation and values are projected in terms of % inhibition in comparison to vehicle control.
(In general: Time-resolved FRET reads energy transfer from a long-lived donor to a nearby acceptor.)

Broadly, the IC50 is the concentration that gives 50% inhibition. As for `O=C(Nc1nc2cccc(-c3ccc(CN4CCS(=O)(=O)CC4)cc3)n2n1)C1CC1` [Filgotinib, filgotinib, reference compound], the IC50 is 490 nM.
